Experimental data as given in publication PMC10638397, “Engineering sulfonate group donor regeneration systems to boost biosynthesis of sulfated compounds” (Nature Communications, 2023).

Substrate: Nc1ncnc2c1ncn2[C@@H]1O[C@H](COP(=O)(O)OS(=O)(=O)O)[C@@H](O)[C@H]1O
Assay: purified protein

B1: trehalose sulfotransferase (Stf0) (Mycolicibacterium smegmatis MC2 155; R143C/W154N) (protein)
chain: MSDHPTAYLVLASQRSGSTLLVESLRATGVAGEPQEFFQYLPNTSMSPQPREWFADVEDQSILRLLDPLIEGKPDLAPATIWRDYIQTVGRTPNGVWGGKLMWNQTPLLVQRAKDLPDRSGSGLLSAIRDVVGSDPVLIHIHCPDVVSQAVSFNRAVQTRVWRGRPDPVRDARAEYHAGAIAHVITMLRAQEEGWRAWFTEENVEPIDVDYPYLWRNLTEVVGTVLEALGQDPRLAPKPVLERQADQRSDEWVERYRRDAQRDGLPL
  Km: 1040 ± 170 µM

B2: estrogen sulfotransferase (EST) (Mus musculus) (protein)
chain: METSMPEYYEVFGEFRGVLMDKRFTKYWEDVEMFLARPDDLVIATYPKSGTTWISEVVYMIYKEGDVEKCKEDAIFNRIPYLECRNEDLINGIKQLKEKESPRIVKTHLPPKLLPASFWEKNCKMIYLCRNAKDVAVSYYYFLLMITSYPNPKSFSEFVEKFMQGQVPYGSWYDHVKAWWEKSKNSRVLFMFYEDMKEDIRREVVKLIEFLERKPSAELVDRIIQHTSFQEMKNNPSTNYTMMPEEMMNQKVSPFMRKGIIGDWKNHFPEALRERFDEHYKQQMKDCTVKFRMEL
pH 7.5, 35.0 °C
  Km: 2910 ± 520 µM
  kcat/Km: 2.44 M⁻¹ s⁻¹

B3: trehalose sulfotransferase (Stf0) (Mycolicibacterium smegmatis MC2 155) (protein)
chain: B1 chain with C143R, N154W
pH 7.5, 35.0 °C
  Km: 1560 ± 260 µM
  kcat/Km: 3.78 M⁻¹ s⁻¹

Where a chain is given by its changes, count along the chain named. Names may count otherwise. Where two headings read alike, the source gives them in different places.
